Literature values in PMC3395807 (Journal of Medicinal Chemistry, 2012).

Test system: DENV
Conditions: cited from earlier work

CCC(O)(CC)CCCCCCN1C[C@H](O)[C@@H](O)[C@H](O)[C@H]1CO [Compound 7, (2R,3R,4R,5S)-1-(7-Ethyl-7-hydroxynonyl)-2-(hydroxymethyl)piperidine-3,4,5-triol]
survival in mouse models of lethal dengue virus infection: protection of mice from death
